Assay [1] has as its target Voltage-gated inwardly rectifying potassium channel KCNH2 (Homo sapiens, UniProt Q12809).
Assay [2] addresses Potassium voltage-gated channel subfamily A member 5 (Homo sapiens, UniProt P22460). The note with it: cho.
Assay [3] concerns the target Intermediate conductance calcium-activated potassium channel protein 4 (Homo sapiens, UniProt O15554).

The chains behind the UniProt entries cited, without tags or fusion partners. Where a name states a change or a piece, a line headed by the entry shows the natural chain unless it says otherwise.
UniProt Q12809: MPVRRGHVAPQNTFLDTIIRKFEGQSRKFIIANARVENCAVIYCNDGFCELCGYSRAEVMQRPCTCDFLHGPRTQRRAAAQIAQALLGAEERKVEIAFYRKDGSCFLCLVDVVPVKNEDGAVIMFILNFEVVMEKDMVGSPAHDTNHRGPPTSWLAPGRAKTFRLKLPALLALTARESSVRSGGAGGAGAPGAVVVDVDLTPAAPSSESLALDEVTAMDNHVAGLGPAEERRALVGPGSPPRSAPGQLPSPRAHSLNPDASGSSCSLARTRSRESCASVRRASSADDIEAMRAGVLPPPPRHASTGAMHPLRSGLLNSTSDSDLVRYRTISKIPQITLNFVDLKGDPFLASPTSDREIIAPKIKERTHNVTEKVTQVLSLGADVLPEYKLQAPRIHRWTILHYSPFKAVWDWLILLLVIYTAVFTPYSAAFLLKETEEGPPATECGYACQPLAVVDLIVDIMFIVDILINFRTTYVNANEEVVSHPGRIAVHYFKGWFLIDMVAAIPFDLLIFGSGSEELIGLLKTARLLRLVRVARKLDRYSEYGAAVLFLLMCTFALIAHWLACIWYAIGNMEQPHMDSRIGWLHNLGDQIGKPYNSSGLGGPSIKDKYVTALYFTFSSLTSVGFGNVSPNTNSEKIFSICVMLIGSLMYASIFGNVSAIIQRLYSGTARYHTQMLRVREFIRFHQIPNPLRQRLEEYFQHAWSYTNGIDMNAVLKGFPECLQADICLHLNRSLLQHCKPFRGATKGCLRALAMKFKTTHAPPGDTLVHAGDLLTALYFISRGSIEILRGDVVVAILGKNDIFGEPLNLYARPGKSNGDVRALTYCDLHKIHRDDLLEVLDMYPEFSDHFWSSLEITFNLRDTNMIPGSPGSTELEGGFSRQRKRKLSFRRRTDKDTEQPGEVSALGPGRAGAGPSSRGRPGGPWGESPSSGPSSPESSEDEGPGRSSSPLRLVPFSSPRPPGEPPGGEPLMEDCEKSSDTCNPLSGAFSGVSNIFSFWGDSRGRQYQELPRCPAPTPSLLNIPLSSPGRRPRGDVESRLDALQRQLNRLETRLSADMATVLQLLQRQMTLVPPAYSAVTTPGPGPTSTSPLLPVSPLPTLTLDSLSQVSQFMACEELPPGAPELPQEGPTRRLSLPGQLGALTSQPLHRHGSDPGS
UniProt P22460, whole entry, looked up: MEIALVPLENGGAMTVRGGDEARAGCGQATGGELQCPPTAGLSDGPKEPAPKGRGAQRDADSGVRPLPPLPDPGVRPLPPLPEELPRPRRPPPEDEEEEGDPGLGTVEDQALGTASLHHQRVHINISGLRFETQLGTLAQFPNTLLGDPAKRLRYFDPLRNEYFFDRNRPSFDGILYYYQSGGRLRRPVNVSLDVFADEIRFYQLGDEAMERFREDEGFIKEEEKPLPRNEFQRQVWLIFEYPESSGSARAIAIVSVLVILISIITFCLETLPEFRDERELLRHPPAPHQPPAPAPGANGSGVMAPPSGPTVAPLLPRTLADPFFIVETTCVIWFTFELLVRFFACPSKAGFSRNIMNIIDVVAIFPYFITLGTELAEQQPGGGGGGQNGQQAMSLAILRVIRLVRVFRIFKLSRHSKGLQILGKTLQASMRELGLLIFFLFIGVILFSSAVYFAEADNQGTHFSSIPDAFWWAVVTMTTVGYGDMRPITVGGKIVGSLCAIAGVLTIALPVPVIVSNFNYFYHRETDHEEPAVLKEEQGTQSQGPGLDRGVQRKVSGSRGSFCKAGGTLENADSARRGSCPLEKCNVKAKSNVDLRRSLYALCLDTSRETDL
UniProt O15554, whole entry, looked up: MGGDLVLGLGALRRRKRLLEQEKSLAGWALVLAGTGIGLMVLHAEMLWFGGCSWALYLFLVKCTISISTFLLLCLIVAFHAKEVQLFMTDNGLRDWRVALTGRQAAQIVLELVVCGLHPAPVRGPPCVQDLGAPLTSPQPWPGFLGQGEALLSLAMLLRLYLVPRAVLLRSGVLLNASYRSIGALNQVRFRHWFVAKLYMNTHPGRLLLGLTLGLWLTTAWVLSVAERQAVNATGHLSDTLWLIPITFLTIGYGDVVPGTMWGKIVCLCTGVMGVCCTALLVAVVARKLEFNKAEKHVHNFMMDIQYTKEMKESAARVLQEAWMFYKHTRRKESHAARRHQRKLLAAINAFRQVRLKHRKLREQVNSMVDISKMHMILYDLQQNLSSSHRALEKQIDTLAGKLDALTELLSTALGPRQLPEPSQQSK

SMILES strings stand for the structures. A value given as a limit tells only on which side of the number the result lay.

In general, IC50 refers to the midpoint of a concentration-inhibition curve.

With `CCCN(c1ccon1)P(=O)(c1ccccc1)c1ccccc1`, the half-inhibitory concentration (IC50) in assay [1] is above 33 µM; in assay [2], 0.59 µM; in assay [3] it was 18 µM.
